Data published in patent publication US20180118718A1 (published 2018).

The chains behind the UniProt entries cited, without tags or fusion partners. Where a name states a change or a piece, a line headed by the entry shows the natural chain unless it says otherwise.
UniProt Q16875: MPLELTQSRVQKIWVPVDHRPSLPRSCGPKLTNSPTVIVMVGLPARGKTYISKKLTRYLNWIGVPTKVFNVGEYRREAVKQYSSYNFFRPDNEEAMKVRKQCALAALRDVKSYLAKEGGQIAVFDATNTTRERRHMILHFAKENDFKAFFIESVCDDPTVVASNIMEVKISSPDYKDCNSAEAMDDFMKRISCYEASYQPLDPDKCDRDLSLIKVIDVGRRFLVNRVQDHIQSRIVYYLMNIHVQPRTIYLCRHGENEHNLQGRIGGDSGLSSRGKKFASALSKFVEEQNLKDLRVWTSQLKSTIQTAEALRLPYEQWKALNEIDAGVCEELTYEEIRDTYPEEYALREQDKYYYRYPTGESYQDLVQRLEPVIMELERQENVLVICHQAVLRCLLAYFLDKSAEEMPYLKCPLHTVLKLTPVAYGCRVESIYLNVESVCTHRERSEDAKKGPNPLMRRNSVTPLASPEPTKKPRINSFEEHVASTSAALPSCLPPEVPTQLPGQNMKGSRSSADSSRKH

Target: Human recombinant His-tagged PFKFB3 (Homo sapiens, UniProt Q16875)
Experiment: PFKFB3 IC50 Determination Assay (in vitro kinase assay, modified ADP-Glo system)
Format: biochemical

Work on `CS(=O)(=O)c1ccncc1Nc1cc(-c2ccc3c(c2)OCCO3)c2nccnc2c1` [Example 1] yielded an IC50 of 1 to 10 µM.

`CS(=O)(=O)c1ccncc1Nc1cc(-c2ccc3ncsc3c2)c2nccnc2c1` [Example 4] showed an IC50 of 0.001 to 1 µM.

In the case of `CS(=O)(=O)c1ccncc1Nc1cc(-c2ccc3scnc3c2)c2nccnc2c1` [Example 9], the IC50 is reported as 0.001 to 1 µM.

With `COc1ncccc1Nc1cc(-c2ccc3ccn(C)c3c2)c2nccnc2c1` [Example 13, N-(2-Methoxypyridin-3-yl)-8-(1-methyl-1H-indol-6-yl)quinoxalin-6-amine] the IC50 was 0.001 to 1 µM.

In the case of `Cn1ccc2ccc(-c3cc(Nc4cnccc4C#N)cc4nccnc34)cc21` [Example 18, 3-{[8-(1-Methyl-1H-indol-6-yl)quinoxalin-6-yl]amino}pyridine-4-carbonitrile], the IC50 is reported as 0.001 to 1 µM.

In the case of `Cc1coc2ccc(-c3cc(Nc4cnccc4S(C)(=O)=O)cc4nccnc34)cc12` [Example 22], the IC50 is reported as 0.001 to 1 µM.

With `COc1ccncc1Nc1cc(-c2ccc3ccn(C)c3c2)c2nccnc2c1` [Example 23, N-(4-methoxypyridin-3-yl)-8-(1-methyl-1H-indol-6-yl)quinoxalin-6-amine] the IC50 was 0.001 to 1 µM.

`CS(=O)(=O)c1ccncc1Nc1cc(-c2ccc3c(c2)CCO3)c2nccnc2c1` [Example 37] showed an IC50 of 0.001 to 1 µM.

`CC(C)n1ccc2ccc(-c3cc(Nc4cnccc4S(C)(=O)=O)cc4nccnc34)cc21` [Example 49] was tested, and the IC50 was 1 to 10 µM.

With `CN(C)c1cccc(-c2cc(Nc3cnccc3S(C)(=O)=O)cc3nccnc23)c1` [Example 50] the IC50 was 0.001 to 1 µM.

For `CCc1ccc(-c2cc(Nc3cnccc3S(C)(=O)=O)cc3nccnc23)cc1` [Example 60], the IC50 was 0.001 to 1 µM.

`COc1cccc(-c2cc(Nc3cnccc3S(C)(=O)=O)cc3nccnc23)c1` [Example 62] showed an IC50 of 0.001 to 1 µM.

Work on `CC1(C)COc2ccc(-c3cc(Nc4cnccc4S(C)(=O)=O)cc4nccnc34)cc21` [Example 63] yielded an IC50 of 1 to 10 µM.

Work on `Cn1ccc2c(F)cc(-c3cc(Nc4cnccc4S(C)(=O)=O)cc4nccnc34)cc21` [Example 71] yielded an IC50 of 0.001 to 1 µM.

`Cn1ccc2ccc(-c3cc(Nc4ccccc4C#N)cc4nccnc34)cc21` [Example 88, 2-{[8-(1-Methyl-1H-indol-6-yl)quinoxalin-6-yl]amino}benzonitrile] gave an IC50 of 0.001 to 1 µM.

With `Cn1ccc2ccc(-c3cc(Nc4ccccc4C(N)=O)cc4nccnc34)cc21` [Example 89, 2-{[8-(1-methyl-1H-indol-6-yl)quinoxalin-6-yl]amino}benzamide] the IC50 was 0.001 to 1 µM.

Compound `Cn1ccc2ccc(-c3cc(Nc4cnccc4C(=O)NC4CCOCC4)cc4nccnc34)cc21` [Example 101, 3-{[8-(1-Methyl-1H-indol-6-yl)quinoxalin-6-yl]amino}-N-(oxan-4-yl)pyridine-4-carboxamide] has an IC50 of 0.001 to 1 µM.

`CN(c1cc(-c2ccc3ccn(C)c3c2)c2nccnc2c1)c1cnccc1S(C)(=O)=O` [Example 104] was tested, and the IC50 was 1 to 10 µM.

`Cc1csc2ccc(-c3cc(Nc4cnccc4S(C)(=O)=O)cc4nccnc34)cc12` [Example 110] showed an IC50 of 0.001 to 1 µM.

`CS(=O)(=O)c1ccncc1Nc1cc(-c2ccc3nsnc3c2)c2nccnc2c1` [Example 117] showed an IC50 of 0.001 to 1 µM.

`CS(=O)(=O)c1ccncc1Nc1cc(-c2ccc3nonc3c2)c2nccnc2c1` [Example 120] gave an IC50 of 1 to 10 µM.

`CS(=O)(=O)c1ccncc1Nc1cc(-c2ccc(N)cc2)c2nccnc2c1` [Example 131] was tested, and the IC50 was 1 to 10 µM.

For `CS(=O)(=O)c1ccncc1Nc1cc(-c2cccc(N)c2)c2nccnc2c1` [Example 132], the IC50 was 1 to 10 µM.

With `COc1ccc(-c2cc(Nc3cnccc3S(C)(=O)=O)cc3nccnc23)cc1` [Example 152] the IC50 was 1 to 10 µM.

With `CS(=O)(=O)c1ccncc1Nc1cc(-c2ccc3ccn(C(F)F)c3c2)c2nccnc2c1` [Example 154] the IC50 was 0.001 to 1 µM.

For `CS(=O)(=O)c1ccncc1Nc1cc(-c2ccc(Br)cc2)c2nccnc2c1` [Example 157], the IC50 was 0.001 to 1 µM.

With `CS(=O)(=O)c1ccncc1Nc1cc(-c2cccc(Br)c2)c2nccnc2c1` [Example 158] the IC50 was 1 to 10 µM.

For `CS(=O)(=O)c1ccncc1Nc1cc(-c2ccc3sc(N)nc3c2)c2nccnc2c1` [Example 162], the IC50 was 0.001 to 1 µM.

Work on `CS(=O)(=O)c1ccncc1Nc1cc(-c2cccc(OC(F)(F)F)c2)c2nccnc2c1` [Example 163] yielded an IC50 of 1 to 10 µM.

`CCn1ccc2ccc(-c3cc(Nc4cnccc4S(C)(=O)=O)cc4nccnc34)cc21` [Example 166] showed an IC50 of 0.001 to 1 µM.

With `CCCn1ccc2ccc(-c3cc(Nc4cnccc4S(C)(=O)=O)cc4nccnc34)cc21` [Example 184] the IC50 was 1 to 10 µM.

In the case of `CS(=O)(=O)c1ccncc1Nc1cc(-c2ccc(C(F)(F)F)cc2)c2nccnc2c1` [Example 185], the IC50 is reported as 1 to 10 µM.

`Cc1cc(-c2cc(Nc3cnccc3S(C)(=O)=O)cc3nccnc23)cc2c1ccn2C` [Example 189] gave an IC50 of 0.001 to 1 µM.

`CS(=O)(=O)c1ccncc1Nc1cc(-c2ccc3sc(N)cc3c2)c2nccnc2c1` [Example 203] gave an IC50 of 0.001 to 1 µM.

For `CSc1cccc(-c2cc(Nc3cnccc3S(C)(=O)=O)cc3nccnc23)c1` [Example 210], the IC50 was 0.001 to 1 µM.
